The data set is described as follows: in vivo. To be noted: mouse, po.

Each structure is given as a SMILES string. Bounds are passed on as bounds.

For one compound, LD50 results are on record in patent EP0005219A1, “Arylimidazoles, their synthesis and pharmaceutical or veterinary preparations containing them” (A/S Dumex (Dumex Ltd.), priority 1978, dated 1979).

By LD50 is commonly meant the dose expected to kill half of the subjects tested. Higher therefore signals a less toxic substance.

Turning to `COc1ccc(-c2nc(C(F)(F)F)[nH]c2-c2ccc(OC)cc2)cc1` [Compound 11, 2-Trifluormethyl-4,5-bis(p-methoxyphenyl)imidazole, reference compound], the median lethal dose (LD50) at 168 h is greater than 2000 mg/kg.
